# Assay results reported in patent US20170313665A1, “HYDROXYALKYL-SUBSTITUTED PHENYLTRIAZOLE DERIVATIVES AND USES THEREOF” (BAYER PHARMA AKTIENGESELLSCHAFT, priority 2014, published 2017).
# Sequences of proteins named here, by UniProt entry; tags and fusion partners are left off.
# UniProt P37288, whole entry: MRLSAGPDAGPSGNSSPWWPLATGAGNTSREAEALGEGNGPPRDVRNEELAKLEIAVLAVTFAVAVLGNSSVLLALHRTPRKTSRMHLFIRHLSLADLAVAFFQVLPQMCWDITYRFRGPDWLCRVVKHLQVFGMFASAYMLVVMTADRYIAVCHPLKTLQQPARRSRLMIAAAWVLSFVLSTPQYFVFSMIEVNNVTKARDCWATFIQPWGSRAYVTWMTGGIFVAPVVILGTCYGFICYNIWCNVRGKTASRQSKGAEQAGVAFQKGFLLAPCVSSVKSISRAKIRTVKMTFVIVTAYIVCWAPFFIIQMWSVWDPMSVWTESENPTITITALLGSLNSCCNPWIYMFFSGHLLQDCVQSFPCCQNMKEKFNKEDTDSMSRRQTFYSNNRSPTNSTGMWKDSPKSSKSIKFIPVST
# UniProt P30518, whole entry: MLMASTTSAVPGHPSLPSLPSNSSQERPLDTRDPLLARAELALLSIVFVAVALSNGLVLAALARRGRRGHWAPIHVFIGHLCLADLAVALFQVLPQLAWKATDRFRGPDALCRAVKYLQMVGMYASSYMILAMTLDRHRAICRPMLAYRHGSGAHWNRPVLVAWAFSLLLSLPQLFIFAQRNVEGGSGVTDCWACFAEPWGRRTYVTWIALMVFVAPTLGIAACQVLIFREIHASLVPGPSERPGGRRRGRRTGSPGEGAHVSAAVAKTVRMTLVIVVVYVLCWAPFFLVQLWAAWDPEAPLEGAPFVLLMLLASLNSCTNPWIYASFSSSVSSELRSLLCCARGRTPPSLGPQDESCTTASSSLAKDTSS
# Assays:
# human V1a receptor = human V1a receptor (Homo sapiens, UniProt P37288); assay: Cellular in vitro assay for vasopressin receptor activity, V1a receptor cell line (aequorin luminescence); assay type: cell-based; details: read-out: IC50 hV1a; CHO cell line transfected with human V1a receptor; [Arg8]-vasopressin at EC50
# human V2 receptor = human V2 receptor (Homo sapiens, UniProt P30518); assay: Cellular in vitro assay for vasopressin receptor activity, V2 receptor cell line (CRE-luciferase); assay type: cell-based; details: read-out: IC50 hV2; CHO cell line transfected with human V2 receptor; [Arg8]-vasopressin at EC50
compound,measurement,setting,value
COC(=O)Cn1nc(Cn2nc(-c3ccc(Cl)cc3)n(C[C@H](O)C(F)(F)F)c2=O)nc1-c1ccccc1Cl,IC50,human V1a receptor,1.3 nM
same,IC50,human V2 receptor,6.7 nM
